In patent US20120328692A1, “POTENT D-PEPTIDE ANTAGONISTS OF MDM2 AND MDMX FOR ANTICANCER THERAPY” (UNIVERSITY OF MARYLAND, BALTIMORE, priority 2011, published 2012):

Legend:
[1] = test system: U87 xenografts (subcutaneous); experiment: subcutaneous U87 xenograft model; conditions: similar in vivo experiments, unpublished results
[2] = test system: human glioma cell line U87 (wild type p53); experiment: MTS cell viability assay, U87 cells; type: cell-based; conditions: similar in vitro experiments, unpublished results
[3] = test system: U251 cells; experiment: Western blot of p53 responsive genes in U251 cells; type: cell-based, human; conditions: Western blotting, 12 h after treatment
[4] = test system: U87 cells; experiment: Western blot of p53 responsive genes in U87 cells; type: cell-based, human; conditions: Western blotting, 12 h after treatment

Row | SMILES | effectiveness compared with ^DPMI-α in vivo [1] | effectiveness compared with ^DPMI-α in vitro [2] | expression of p53 responsive genes MDM2 and p21 [3] | expression of p53 responsive genes MDM2 and p21 [4]
1 | CC(C)C[C@@H](NC(=O)[C@@H](CC(C)C)NC(=O)[C@@H](CCCCN)NC(=O)[C@@H](CCC(=O)O)NC(=O)[C@@H](Cc1ccccc1)NC(=O)[C@@H](CC(N)=O)NC(=O)[C@@H](C)NC(=O)[C@@H](Cc1ccc(O)cc1)NC(=O)[C@@H](Cc1c[nH]c2ccccc12)NC(=O)[C@@H](C)NC(=O)[C@H](N)[C@H](C)O)C(=O)N[C@H](CCCNC(=N)N)C(=O)O [^DPMI-β] | more effective than ^DPMI-α | more effective than ^DPMI-α |  | 
2 | CC(C)C[C@@H](NC(=O)[C@@H](CC(C)C)NC(=O)[C@@H](CCCCN)NC(=O)[C@@H](CCC(=O)O)NC(=O)[C@@H](CC(C)C)NC(=O)[C@@H](CC(N)=O)NC(=O)[C@@H](C)NC(=O)[C@@H](Cc1ccc(O)cc1)NC(=O)[C@@H](Cc1c[nH]c2ccccc12)NC(=O)[C@@H](CC(N)=O)NC(=O)[C@H](N)[C@H](C)O)C(=O)N[C@H](CCCNC(=N)N)C(=O)O [^DPMI-α] |  |  | not in U251 cells | dose-dependent expression
